# This is a sample that favours compounds with a hit; in the whole collection about 13% have one here.
# Sfp inh: qHTS Assay for Inhibitors of Bacillus subtilis Sfp phosphopantetheinyl transferase (PPTase); actives 3.5% (n = 310,000); AID 1490, 2009; Biochemical Sfp PPTase activity, qHTS; Potency, µM, for inactives: max response, negative = inhibition, usual class: inhibitors; 4'-phosphopantetheinyl transferase ffp (Bacillus subtilis), Q9F4F7; active means well fitted inhibition curve with a large enough effect; inconclusive means small, poorly fitted or top-dose-only effect, or another doubt; inactive means no such curve, though single readings can be large or run the other way;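 further: the enzyme is Sfp with the accession as filed and its product quenches rhodamine fluorescence; potency means the concentration at half of the fitted maximal effect; 0% = enzyme reaction without inhibitor and -100% = no enzyme wells; top concentration of the series not given in the record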
#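 Fluorescence-quenching assay: 15 nM Sfp-PPTase preincubated 15 min at room temperature with compound, then 5 uM rhodamine-CoA and 12.5 uM BHQ-2-labelled YbbR peptide added. Fluorescence (ex 525/em 598 nm) read at start and after 30 min; difference gives rate.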
# ALDH1A1 inh: blocks purified human ALDH1A1 activity. P00352. Purified ALDH1A1, NADH fluorescence, propionaldehyde substrate. Potency, µM (highest dose often 75.3 µM), for inactives: at the highest dose activity, negative = inhibition, usual class: inhibitors. actives 7.3% (n = 220,000); active = well fitted inhibition curve with a large enough effect, not every such curve was filed as active; inconclusive = small, poorly fitted or top-dose-only effect, or another doubt; inactive = no such curve, though single readings can be large or run the other way;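 also: potency is read from the fitted curve at half-maximal effect; plate controls were no enzyme wells and a reference inhibitor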
# miR-21 FLuc: raises the signal of a miR-21 reporter | Potency, µM (doses to about 38.3 µM), for inactives: top-dose reporter change, positive = more light | HeLa miR-21 FLuc reporter, luciferase, 48 h | AID 2288 | 340,000 tested, under 10 active; active = well fitted rising curve with a large enough effect; inconclusive = small, poorly fitted or top-dose-only effect; inactive = no such curve, though single readings can be large or run the other way;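 also: % of control where 0% means no effect; miR-21 action dims this reporter so a rising signal means less miR-21 action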
#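 HeLa cells endogenously expressing miR-21, stably carrying CMV-driven firefly luciferase with a downstream miR-21 binding site, 2000 cells/well. Titrations up to approximately 40 uM, 48 hours; luciferase luminescence read.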
# LMNA splice mod: changes lamin A minigene splicing in HeLa cells. HeLa LMNA splicing GFP/RFP minigene ratio, 48 h. Potency, µM (doses to about 46.1 µM), for the others: at the top dose ratio change, negative = inhibition, hits mostly inhibitors. actives 0.01% (n = 200,000); active = well fitted inhibition curve with a large enough effect in the signal ratio, with a control signal flat, not every such curve was filed as active; inconclusive = small, poorly fitted or top-dose-only effect, or effect the other way, or a change in a side signal; the % refers to the signal ratio; also: potency is read from the fitted curve at half-maximal effect; % is scaled to controls: 0 for no effect and ±100 for the full control effect
#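 Read-out is the ratio of GFP to DsRed2 object intensity, acquired by 488 nm laser-scanning cytometry on HeLa lamin A-EGFP minigene reporter cells. Compound incubation 48 hrs at 37 °C in Opti-MEM with 2% FBS; DMSO 0.5% final.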
# JMJD2E inh: blocks human JMJD2E demethylase activity; JMJD2E catalytic domain, FDH-coupled NADH fluorescence (FDH is formaldehyde dehydrogenase); B2RXH2; Potency, µM (highest dose often 57.1 µM), inactives show at the top dose activity change, negative = inhibition, actives largely listed as inhibitors; AID 2147; actives 1.6% (n = 230,000); active = well fitted inhibition curve with a large enough effect, not every such curve was filed as active; inconclusive = small, poorly fitted or top-dose-only effect, or another doubt; inactive = no such curve, though single readings can be large or run the other way;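 also: potency is read from the fitted curve at half-maximal effect; 0% = wells with enzyme and -100% = buffer wells without enzyme; nearly all actives have a fitted effect of over 50% in size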
# G9a inh: G9a (human) methyltransferase inhibition. Q96KQ7. G9a H3K9 monomethylation, AlphaScreen, 2 h. Potency, µM (top dose mostly 102 µM), for inactives: at the top dose activity, negative = inhibition, actives largely listed as inhibitors. actives 8.8% (n = 350,000). AID 504332; also: potency is read from the fitted curve at half-maximal effect; % is scaled to controls: 0 for no effect and ±100 for the full control effect; nearly all actives have a fitted effect of over 75% in size
#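 Readings reflect AlphaScreen signal from monomethyl-H3K9 antibody detection. HMT at 20 nM; substrate b-H3K9 500 nM; cofactor SAM 20 uM; 2 h RT reaction; compounds tested as titrations in qHTS with 15 min preincubation.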
# * = called active by the depositor; u = inconclusive; x = no result given; ! = not confirmed by another sample; [ ] = another dose, or the depositor's remark. Unless noted, calls follow the shape of the dose curve; as a rule, active = well fitted curve in the direction sought with a large enough effect; inconclusive = small, poorly fitted or top-dose-only effect, or another doubt; inactive = no such curve, though single readings can be large; an effect the other way counts as inactive or inconclusive.
No. | structure | Sfp inh | ALDH1A1 inh | miR-21 FLuc
1 | O=C(COc1ccc(Cl)cc1)Nc1cc(S(=O)(=O)N2CCCCC2)ccc1N1CCCCC1 | 3% | -15% | 0%
2 | CN1CCN(c2ccc(S(=O)(=O)N3CCCCC3)cc2NC(=O)COc2cccc(Cl)c2)CC1 | x | x | x
3 | CN1CCN(c2ccc(S(=O)(=O)N3CCCCC3)cc2NC(=O)COc2ccc(F)cc2)CC1 | x | x | x
4 | Cc1cccc(OCC(=O)Nc2cc(S(=O)(=O)N3CCCCC3)ccc2N2CCN(C)CC2)c1 | -15% | 11µM* | 8%
5 | CCNc1ncc2nc(-c3ccc(Cl)cc3)c(=O)n(C3CC3)c2n1 | 8% | u | x
6 | N#Cc1c(-c2ccco2)nc(SCc2ccc(F)cc2)[nH]c1=O | 10% | 0% | 1%
7 | Cc1nc(SCc2cccc(F)c2)[nH]c(=O)c1C#N | 19% | -11% | -6%
8 | CCCCCCCCCCCCC/C=C/[C@@H](O)[C@H](CO)NC(=O)CCCCCCC | 35% | -8% | x
9 | CCC(C)NC(=O)c1cc2c(=O)[nH]c3ccc(C)cc3c2s1 (stereo not drawn) | 1% | x | -9%
10 | CCCCC1=CC2=CC(=O)C(C)(OC(=O)CC)C(=O)C2=CN1c1ccccc1 (stereo not drawn) | 8% | -2%[13.5 µM] | -6%
11 | CCCCC1=CC2=CC(=O)C(C)(OC(=O)CC)C(=O)C2=CN1Cc1ccccc1 (stereo not drawn) | -13% | 19%[13.5 µM] | 0%
12 | CCCCC1=CC2=CC(=O)C(C)(OC(=O)CC)C(=O)C2=CN1Cc1ccco1 (stereo not drawn) | u | -2%[13.5 µM] | 1%

No. | LMNA splice mod | JMJD2E inh | G9a inh
1 | -6% | 23% | -11%[59 µM]
2 | x | x | 40µM*
3 | x | x | 28µM*
4 | -2%[46 µM] | -10% | -19%
5 | x | x | 0%[12.7 µM]
6 | 5% | -4% | 0%[12.7 µM]
7 | 6% | 28µM* | -29%
8 | x | -24% | 20%[59 µM]
9 | x | x | 2%
10 | 11%[9.22 µM] | 25µM*! | -1%[12.7 µM]
11 | u | u | -46%[59 µM]
12 | 12%[9.22 µM] | 22µM*! | -38%[59 µM]

# Next part:
No. | structure | Sfp inh | ALDH1A1 inh | miR-21 FLuc
13 | CCOC(=O)C1CCN(S(=O)(=O)CCNC(=O)c2ccc(F)cc2)CC1 | x | x | x
14 | COc1cscc1C(N)=O | 16% | 4% | -2%
15 | COc1ccc(-c2c(C)nn3c4c(cnc23)C(=O)CC(c2ccccc2)C4)cc1 (stereo not drawn) | x | x | -10%
16 | CCCCSC1=N/C(=C/c2ccsc2)C(=O)N1c1ccccc1 | -13% | u | -2%
17 | CCCSC1=N/C(=C/c2ccsc2)C(=O)N1c1ccccc1 | -27% | 14µM* | -6%
18 | Cn1c(=O)c2c(nc(SC3C(=O)CC(C)(C)CC3=O)n2C)n(C)c1=O | 56µM* | -22% | 2%
19 | CC(C)Sc1nc2c(c(=O)n(C)c(=O)n2C)n1C | 1% | -17% | -3%
20 | COc1ccc(C(=O)N/C(=C\c2ccc([N+](=O)[O-])cc2)C(=O)NC(CCSC)C(=O)O)cc1 (stereo not drawn) | -21% | -11% | 0%
21 | Cc1ccc(C(=O)N/C(=C\c2cccc([N+](=O)[O-])c2)C(=O)Nc2cccc(C(=O)O)c2)cc1 | 1% | x | -2%
22 | COc1ccc(C(=O)N/C(=C\c2cccc([N+](=O)[O-])c2)C(=O)Nc2cccc(C(=O)O)c2)cc1 | 5% | 13µM* | 0%
23 | COc1ccc(/C=C(\NC(=O)c2ccc(OC)cc2)C(=O)NC(CCSC)C(=O)O)cc1 (stereo not drawn) | 24% | -7% | -7%
24 | Oc1ccc(N2CCN(Cc3nc4ccccc4[nH]3)CC2)cc1 | 56µM* | x | -10%

No. | LMNA splice mod | JMJD2E inh | G9a inh
13 | x | x | 4%
14 | 3%[46 µM] | 2% | -1%
15 | x | x | 7%[59 µM]
16 | u | 93% | 75%[59 µM]
17 | u | u | 135%[59 µM]
18 | 12% | -3% | u
19 | 4% | 4% | 0%
20 | x | -2% | 50µM*
21 | x | x | u
22 | x | -10% | 2%
23 | 8% | -1% | 0%[2.33 µM]
24 | x | x | 11µM*

# 3 structures from above, arranged by formula weight, ascending.
No. | structure | Sfp inh | ALDH1A1 inh | miR-21 FLuc
20 | COc1ccc(C(=O)N/C(=C\c2ccc([N+](=O)[O-])cc2)C(=O)NC(CCSC)C(=O)O)cc1 (stereo not drawn) | -21% | -11% | 0%
3 | CN1CCN(c2ccc(S(=O)(=O)N3CCCCC3)cc2NC(=O)COc2ccc(F)cc2)CC1 | x | x | x
1 | O=C(COc1ccc(Cl)cc1)Nc1cc(S(=O)(=O)N2CCCCC2)ccc1N1CCCCC1 | 3% | -15% | 0%

No. | LMNA splice mod | JMJD2E inh | G9a inh
20 | x | -2% | 50µM*
3 | x | x | 28µM*
1 | -6% | 23% | -11%[59 µM]

# Remaining list, next part:
No. | structure | Sfp inh | ALDH1A1 inh | miR-21 FLuc
25 | O=c1[nH]c(CN2CCN(c3ccccc3O)CC2)nc2scc(-c3ccccc3Cl)c12 | 23% | x | 17%
26 | O=c1[nH]c(CN2CCN(c3ccc(O)cc3)CC2)nc2scc(-c3ccc(Cl)cc3)c12 | 7% | 1% | 28%
27 | C=CCn1c(=O)c2c(nc3n2CC(C)CN3CCc2ccccc2)n(C)c1=O (stereo not drawn) | 8% | x | -7%
28 | Cc1nc2sc(C(=O)Nc3ccccc3Cc3ccccc3)c(C)c2c(=O)[nH]1 | -2% | 5% | 0%
29 | O=C(CN1CCOCC1)NC1CC2CCC1C2 (stereo not drawn) | u | 25µM* | -2%
30 | COc1ccccc1Cn1c(SCC(=O)C(C)(C)C)nc2ccccc2c1=O | x | x | 19%
31 | O=C(O)CC1NCCc2ccccc21 (stereo not drawn) | 15% | x | -9%
32 | O=C(O)C1NCCc2ccccc21 (stereo not drawn) | 5% | -11% | -2%
33 | COc1ccc(/C=N/NC(=O)CN2CCSCC2)cc1C | -26% | 10µM* | -7%
34 | O=C(CN1CCSCC1)N/N=C/c1cccc(Cl)c1 | -20% | u | -14%
35 | CN1CCN(CC(=O)N/N=C/c2ccc(F)c(F)c2)CC1 | -22% | -1% | 0%
36 | Nc1nn(-c2ccccc2)c(N)c1N=Nc1cccc(F)c1 | 3% | x | -24%

No. | LMNA splice mod | JMJD2E inh | G9a inh
25 | x | -9% | 4%[59 µM]
26 | x | 1% | 3.2µM*
27 | x | x | u
28 | u | -19% | x
29 | 19% | 4% | -45%[12.7 µM]
30 | -12%[46 µM] | x | -2%[59 µM]
31 | x | -3% | -33%[59 µM]
32 | 0% | -9% | 40µM*
33 | -12% | -2% | u
34 | x | u | 3.2µM*
35 | -8% | u | 16µM*
36 | x | -14% | 20µM*

# Structural class: those above containing two or more sulfur atoms
No. | structure | Sfp inh | ALDH1A1 inh | miR-21 FLuc
16 | CCCCSC1=N/C(=C/c2ccsc2)C(=O)N1c1ccccc1 | -13% | u | -2%
17 | CCCSC1=N/C(=C/c2ccsc2)C(=O)N1c1ccccc1 | -27% | 14µM* | -6%

No. | LMNA splice mod | JMJD2E inh | G9a inh
16 | u | 93% | 75%[59 µM]
17 | u | u | 135%[59 µM]

# Carrying on:
No. | structure | Sfp inh | ALDH1A1 inh | miR-21 FLuc
37 | Cc1ccc(S(=O)(=O)/N=C(\CCl)N2CCOCC2)cc1 | 9% | 28µM* | 16%
38 | Cc1ccc(S(=O)(=O)/N=C(\CN2CCOCC2)N2CCCC2)cc1 | 21% | 1% | -6%
39 | Cc1ccc(S(=O)(=O)NC(C)C(=O)N2CCOCCOCCOCC2)cc1 (stereo not drawn) | 17% | x | -11%
40 | Cc1ccc(C2=NNC(C(O)C(O)C(O)C(O)CO)S2)cc1 (stereo not drawn) | -18% | u | -35%
41 | OC[C@H](O)[C@H](O)[C@@H](O)[C@@H](O)[C@@H]1SC(c2ccccc2)=NN1c1ccccc1 | -4% | x | -3%
42 | CCN1C=C(Cc2cccs2)C2=C(C1)C(c1cccs1)C(C#N)=C(N)O2 (stereo not drawn) | -7% | 20µM* | 17%
43 | CCN1CC2=C(OC(N)=C(C#N)C2c2cccs2)/C(=C/c2cccs2)C1 (stereo not drawn) | -8% | 18µM* | 15%
44 | CCN1CC2=C(OC(N)=C(C#N)C2c2ccccc2)/C(=C\c2ccccc2)C1 (stereo not drawn) | -14% | u | 21%

No. | LMNA splice mod | JMJD2E inh | G9a inh
37 | u | 10% | -20%
38 | 1% | -2% | 1%
39 | x | x | 71µM*
40 | 11% | -13% | u
41 | x | -30% | 11µM*
42 | u | u | u
43 | 10% | 14µM* | u
44 | -4% | u | -13%[59 µM]

# Assay outcomes: PubChem, National Center for Advancing Translational Sciences (NCATS)
